Shown are actives, neighbours in structure and some others; about 2.1% of the full set was active somewhere.
INS-1E GSIS act = GLuc luminescence reporter in INS-1E cells, primary screen for activators of glucose-dependent secretion of insulin; 370,000 tested, 0.61% active; INS-1E GLuc reporter insulin secretion, 2-3 h; activation, % at 16.6 µM;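 active = lowest replicate activation of at least 40%, so every replicate reaches that level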
SMARCA2 activ = SMARCA2 function activation, primary screen. activation, % at 9.1 µM. MG213 cells, MMTV-luciferase reporter, dexamethasone, overnight. 370,000 tested, 1% active; in the data active = activation above about 7.8%
ERp5 inh = blocks human ERp5 reductase activity on insulin; Q15084; ERp5 insulin aggregation, absorbance 650 nm, 90 min; inhibition, % at 9.99 µM; 350,000 tested, 0.05% active;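 active = mean replicate inhibition above about 25%, with every replicate also reaching it, limit read from the data, passing the limit was not always enough; inconclusive = only one of those two criteria met; inactive = neither criterion met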
PDI turbidity = PDI (human) enzyme inhibition | P07237 | PDI insulin aggregation turbidity, A650, 90 min | inhibition, % at 10 µM | 350,000 tested, 0.052% active;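 active = mean inhibition across replicates of 30% or more, whatever share of single replicates reach that level; inconclusive = mean inhibition below 30% while every single replicate reaches 30%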
NR1D1 modulator = modulates human Rev-erb alpha binding to DNA; Rev-erbα–FITC-DNA binding, fluorescence polarization, 90 min; P20393; activity, % at 10 µM; AID 1259318; 370,000 tested, 0.79% active;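 active = activity above about 14%, limit read from the data; passing the limit was not always enough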
UUG fidelity = alters start codon recognition fidelity in yeast; AID 602363; activity score, % at 18.7 µM; 350,000 tested, 0.13% active; S. cerevisiae UUG-firefly luciferase reporter, luminescence/redox ratio;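 active means replicate mean at a twofold rise or more, about +100% in these data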;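 further: firefly luciferase made from a UUG start codon reports start codon fidelity; reporter light over untreated wells divided by growth signal over untreated wells; some hits fall short of that in this replicate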
NR1D1 mod conf = confirmation of modulators of human Rev-erb alpha DNA binding; shares compounds with NR1D1 modulator; Rev-erb alpha FITC-DNA binding, fluorescence polarization, 90 min; activation, % at 25 µM; 3,000 tested, 61% active;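 active = activation at or above a set limit, or at least 3 SD above the negative control mean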
RORg DNA counter = counter-screen for Rev-erb alpha modulators: RORgamma DNA binding | shares compounds with NR1D1 modulator | purified RORgamma protein-FITC-DNA binding, fluorescence polarization | IC50, µM | 910 tested, 8% active;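 active = Compounds whose fitted half-maximal concentration for disrupting protein-DNA binding is below 10 micromolar; the record names Rev-erb in its text, so the target is in doubt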
Hits are given with their value; – = inactive; ? = inconclusive; · = no result; ! = a repeat was not active.

SMILES	INS-1E GSIS act	SMARCA2 activ	ERp5 inh	PDI turbidity	NR1D1 modulator	UUG fidelity	NR1D1 mod conf	others
O=C1c2cccc3cccc(c23)C(=O)N1OS(=O)(=O)c1ccc(Br)cc1	–	–	–	–	–	·	·
O=C1c2cccc3cccc(c23)C(=O)N1OS(=O)(=O)c1ccccc1	·	–	·	–	59	–	–
Cc1cc(NCCCOC(C)C)n2c(nc3ccccc32)c1C#N	–	–	–	–	44	–	–
COc1ccc(NC(=O)Nc2cccc3c2O[C@H](CN(C)C)[C@H](C)CN([C@@H](C)CO)C3=O)cc1	–	·	–	·	·	–	·
CCCC(=O)Nc1ccc(-c2nc3cc(C)c(C)cc3o2)c(O)c1	·	–	·	–	17	–	–
CNC[C@@H]1OCCCC[C@@H](C)Oc2ccc(NC(=O)c3ccccc3)cc2C(=O)N([C@@H](C)CO)C[C@@H]1C	–	·	–	·	·	–	·
COc1cccc2c1C(=O)c1c(O)c3c(c(O)c1C2=O)C[C@@](O)(C(=O)CO)C[C@@H]3O[C@H]1C[C@H](N)[C@@H](O)[C@H](C)O1	·	·	·	–	–	–	·
COc1cccc2c1C(=O)c1c(O)c3c(c(O)c1C2=O)C[C@@](O)(C(C)=O)C[C@@H]3O[C@H]1C[C@H](N)[C@H](O)[C@H](C)O1	·	–	–	–	28!	–	–
COc1ccc(CCNc2nc(=S)[nH]c3cc(OC)c(OC)cc23)cc1OC	–	–	–	–	–	·	·
COc1cc2[nH]c(=S)nc(NCCc3ccc(C)cc3)c2cc1OC	–	–	–	–	76	·	52	RORg DNA counter=4
COCc1cn(CC[C@@H]2CC[C@@H](NC(=O)CCN3CCCCC3)[C@@H](CO)O2)nn1	–	·	–	·	·	–	·
CCCCCCc1cc2cc(C(=O)NCc3ccccc3)c(=N)oc2cc1O	–	–	–	–	–	–	·
CCCCCCc1cc2cc(C(=O)Nc3ccccc3)c(=O)oc2cc1O	–	–	·	–	91	–	43	RORg DNA counter=6.3
CCC(=O)c1ccc(OCC(=O)Nc2ccccc2C(=O)NC2CC2)cc1	–	–	–	–	22	–	96	RORg DNA counter=–
CCc1noc(C)c1C(=O)Nc1nc(-c2ccc(F)cc2)c(C)s1	–	–	–	–	–	–	·
CCc1ccc(-c2nc(NC(=O)c3ccc(OCC(=O)Nc4ccc(F)cc4)c(OC)c3)sc2C)cc1	–	–	–	–	113	–	66	RORg DNA counter=–
COc1cc(C(=O)Nc2nc(-c3ccc(Cl)cc3)c(C)s2)ccc1OCC(=O)Nc1ccc(F)cc1	–	–	·	–	122	·	125	RORg DNA counter=–
COc1ccc(-c2nc(NC(=O)c3ccc(OCC(=O)N4CCOCC4)c(OC)c3)sc2C)cc1	–	–	·	–	–	·	·
CC(C)NC(=O)Nc1ccc2c(c1)C(=O)N([C@@H](C)CO)C[C@@H](C)[C@H](CN(C)Cc1ccc(C(=O)O)cc1)OCCCC[C@@H](C)O2	–	·	–	·	·	–	·
Cc1ccc2nc(-c3cc(-c4ccccc4)no3)cn2c1	·	–	·	–	37	–	19
O=c1c2ccccc2sc2ccc(Cl)cc12	–	–	–	–	80	·	77	RORg DNA counter=–
Cc1cc(=O)c2ccccc2s1	–	–	–	–	–	–	·
CC(=O)c1ccc(N2CCN(S(=O)(=O)c3ccc4c(c3)CCC(=O)N4)CC2)cc1	·	–	–	–	–	–	·
COc1ccccc1N1CCN(c2ccc3cc(S(=O)(=O)N4CCCCC4)ccc3n2)CC1	–	–	·	–	–	–	·
CC(=O)c1ccc(N2CCN(S(=O)(=O)c3ccc4c(c3)NC(=O)CO4)CC2)cc1	·	–	–	–	38	·	22
SMILES	INS-1E GSIS act	SMARCA2 activ	ERp5 inh	PDI turbidity	NR1D1 modulator	UUG fidelity	NR1D1 mod conf	others
O=S(=O)(c1ccc2nc(N3CCN(c4ccccc4)CC3)ccc2c1)N1CCCCC1	–	–	–	–	83	–	56	RORg DNA counter=–
CC(=O)c1ccc(N2CCN(c3ccc4cc(S(=O)(=O)N5CCC(C)CC5)ccc4n3)CC2)cc1	–	–	–	–	35	–	45	RORg DNA counter=–
Cc1ccc(S(=O)(=O)Nc2ccc3c(c2)C(=O)N([C@H](C)CO)C[C@H](C)[C@H](CN(C)S(=O)(=O)c2c(C)noc2C)OCCCC[C@H](C)O3)cc1	–	·	–	·	·	–	·
O=C([C@H]1[C@H](CO)[C@H]2Cn3c(ccc(C4=CCCC4)c3=O)[C@@H]1N2Cc1nccs1)N1CCCCC1	–	·	–	·	·	–	·
Cc1ccc(C(=O)Nc2sc3c(c2C(=O)NCc2ccco2)CCCC3)cc1	·	–	·	–	–	–	·
COC(=O)Nc1sc2c(c1C(=O)NCc1ccco1)CCCC2	·	–	·	–	–	–	·
COc1ccc(C(=O)Nc2sc3c(c2C(=O)NCc2ccco2)CCCC3)cc1OC	·	–	·	–	26	–	–
COc1cc(C(=O)Nc2sc3c(c2C(=O)NCc2ccco2)CCCC3)cc(OC)c1OC	·	–	·	–	27	–	–
CCOC(=O)/C(=C/C=C1\Sc2cc(C)c(C)cc2N1CC)C(C)=O	–	–	–	–	32	·	–
CCOC(=O)/C(=C\C=C1/Sc2ccccc2N1CC)C(C)=O	–	–	–	–	27	–	–
O=C(C[C@H]1C[C@@H]2c3cc(NC(=O)Nc4ccc(C(F)(F)F)cc4)ccc3O[C@@H]2[C@H](CO)O1)NCCc1ccccc1	–	·	–	·	·	–	·
CC(C)OC(=O)CSc1nnc2c3ccccc3n(C)c2n1	–	–	–	–	–	·	·
CC(C)CSc1nnc2c3ccccc3n(C)c2n1	–	–	–	–	20	–	–
CC(=O)Nc1ccc(NC(=O)CSc2nnc3c4ccccc4n(C)c3n2)cc1	–	–	–	–	–	·	·
COC(=O)c1ccc(S(=O)(=O)NCCSc2nnc3c4ccccc4n(C)c3n2)cc1	–	·	–	–	29	·	18
COc1cccc(-c2nc3sc4c(c3c(=O)[nH]2)CCCCC4)c1	–	–	·	–	26	–	–
COCc1nc2sc3c(c2c(=O)[nH]1)CCCC3	–	–	·	–	–	·	·
Cc1cn2c(N)c(C=C3C=C(Cl)C(=O)C(Cl)=C3)c(=O)nc2s1	–	–	–	–	26	·	–
COC1=C/C(=C/c2c(N)n3cc(C)sc3nc2=O)C=CC1=O	–	–	–	?	–	–	·
COC(=O)c1sc(NC(=O)c2ccco2)c(C#N)c1C	–	–	–	–	–	–	·
Cc1ccccc1OCC(=O)Nc1sc2c(c1C#N)CC(C)(C)NC2(C)C	–	–	–	–	–	–	·
COc1ccccc1NC(=O)c1sc(NC(=O)c2ccco2)c(C#N)c1C	–	–	–	–	104	·	47	RORg DNA counter=–
COc1ccccc1NC(=O)c1oc2ccccc2c1NC(=O)c1ccco1	–	–	·	–	27	–	–
Cc1ccccc1OCC(=O)Nc1sc(C(=O)Nc2cccc(C)c2C)c(C)c1C#N	–	·	–	–	54	–	23

Compound activity from PubChem.
